Results: patent publication US20240294509A1, “PYRIDAZINONE COMPOUND AS PARP7 INHIBITOR” (Euregen Biopharma Co., Ltd., priority 2021, published 2024)

Protein sequences, listed by entry. Tags and fused reporters are not part of them.
UniProt P09874, whole entry: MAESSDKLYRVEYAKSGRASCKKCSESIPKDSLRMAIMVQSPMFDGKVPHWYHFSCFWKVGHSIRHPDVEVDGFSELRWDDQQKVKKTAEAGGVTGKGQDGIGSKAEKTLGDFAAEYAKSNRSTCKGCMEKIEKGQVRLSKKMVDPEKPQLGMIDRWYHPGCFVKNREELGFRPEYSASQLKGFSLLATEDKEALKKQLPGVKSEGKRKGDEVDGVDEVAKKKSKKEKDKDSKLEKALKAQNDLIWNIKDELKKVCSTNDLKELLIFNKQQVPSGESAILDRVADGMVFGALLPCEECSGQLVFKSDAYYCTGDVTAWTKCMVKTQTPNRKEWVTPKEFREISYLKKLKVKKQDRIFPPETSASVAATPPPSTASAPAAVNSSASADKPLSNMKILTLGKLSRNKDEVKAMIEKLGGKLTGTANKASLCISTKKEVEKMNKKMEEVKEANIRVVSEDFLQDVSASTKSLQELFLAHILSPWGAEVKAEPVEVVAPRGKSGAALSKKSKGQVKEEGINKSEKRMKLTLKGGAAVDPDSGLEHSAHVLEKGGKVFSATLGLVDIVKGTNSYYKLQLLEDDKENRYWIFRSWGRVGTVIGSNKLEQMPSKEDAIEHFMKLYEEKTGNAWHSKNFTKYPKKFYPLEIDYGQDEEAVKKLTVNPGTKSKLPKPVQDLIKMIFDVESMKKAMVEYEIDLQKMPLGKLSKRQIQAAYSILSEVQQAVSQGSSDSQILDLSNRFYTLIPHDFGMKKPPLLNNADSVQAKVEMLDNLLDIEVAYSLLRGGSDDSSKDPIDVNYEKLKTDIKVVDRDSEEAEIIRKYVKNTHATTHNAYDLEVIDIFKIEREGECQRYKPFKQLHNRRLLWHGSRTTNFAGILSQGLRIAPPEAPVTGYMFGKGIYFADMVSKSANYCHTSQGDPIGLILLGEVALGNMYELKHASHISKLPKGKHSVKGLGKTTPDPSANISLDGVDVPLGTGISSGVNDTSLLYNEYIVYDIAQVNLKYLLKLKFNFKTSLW

Biological target: PARP1 (Homo sapiens (Human), UniProt P09874)
Conditions: tested form: formate

For `O=C(CC[C@@H]1C[C@H](O)CN1c1cc(C(F)(F)F)c(=O)[nH]n1)N1CCN(c2ncc(C(F)(F)F)cn2)CC1`, the IC50 was 12.5 nM.
